Test results as given in patent publication EP4831169A1, “NOVEL COMPOUND USED AS CBP/P300 INHIBITOR, AND PHARMACEUTICAL COMPOSITION FOR PREVENTING OR TREATING CANCER, INFLAMMATORY DISORDERS, OR AUTOIMMUNE DISEASES COMPRISING SAME AS ACTIVE INGREDIENT” (dated 2026).

The chains behind the UniProt entries cited, without tags or fusion partners. Residues count along the entry.
UniProt Q92793, 1085-1192 limits assumed: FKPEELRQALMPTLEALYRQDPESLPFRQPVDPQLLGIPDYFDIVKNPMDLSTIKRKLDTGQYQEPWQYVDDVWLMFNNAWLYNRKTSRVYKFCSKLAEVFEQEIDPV

What was measured:
CBP BRD protein = CBP BRD protein (Homo sapiens, UniProt Q92793); assay: CBP bromodomain TR-FRET inhibitory activity assay; conditions: read-out: CBP BRD IC50, Table 3
Experimental: A time resolved fluorescence resonance energy transfer (TR-FRET) experiment was used to verify the activity of CBP bromodomain.
The assay was performed in a final volume of 14 µL, optimized based on a CREBBP time resolved fluorescence resonance energy transfer (TR-FRET) assay kit (BPS Bioscience, cat. 32619) to maximize an assay window, and performed in a final volume of 14 µL, while maximizing the assay window. A TR-FRET fluorescence acceptor and a Tb donor were diluted in an assay buffer containing 2-[4-(2-hydroxyethyl)piperazin-1-yl]ethanesulfonic acid (HEPES) (hereafter, referred to as an assay buffer, BPS Bioscience, cat. 33012), and 3 µL of each solution was transferred to all wells of a white 384-low-volume well plate (Corning, cat. 4513). 2 µL of 4X Ac-H4 peptide (final concentration 85 nM) was transferred to high control wells and test wells. Each compound was prepared at 10 concentration points by serially diluting 3-fold from the highest concentration in a dimethyl sulfoxide solvent. The compound at each concentration was then diluted in the assay buffer to prepare a diluted compound solution that was 4-fold more concentrated than the final concentration. 2 µL of each compound or dimethyl sulfoxide prepared in this way was distributed into an assay plate so that the final test concentration was a minimum of 0.5 µM to a maximum of 10 µM (final dimethyl sulfoxide concentration 1%). 6 µL of 1X assay buffer was added to low control wells and 2 µl was added to high control and test wells. Then, 2 µL of 4X CBP BRD protein (final concentration 7.5 nM, BPS bioscience, cat 31128) was added to initiate a PPI reaction. The plate was reacted at room temperature for 2 hours before measuring the signal. The TR-FRET signal was measured using an EnVision Multilabel plate reader (PerkinElmer; Mirror LNACE/DELFIA Dual/Bias). For data analysis, the values of each well were obtained using a TR-FRET ratio ((Signal 665 nm/Signal 615 nm)×20000). Data analysis was performed using the TR-FRET ratio ((Signal 665 nm/Signal 615 nm)×20000). Data were reported as percent inhibition compared to control wells based on the following equation: %Activity = ((FRETcompound - FRETLow av)/(FRETHigh av - FRETLow av))×100. IC50 analysis was determined by standard 4 parameter curve fitting according to an algorithm using GraphPad Prism 7.0 (GraphPad Software Inc., La Jolla, CA, USA). All data are expressed as mean ± standard error of the mean (SEM).

BRD4 (BD1) protein = BRD4 (BD1) protein (Homo sapiens, UniProt O60885); assay: BRD4 bromodomain TR-FRET inhibitory activity assay; conditions: read-out: BRD4 (BD1) IC50, Table 4
Experimental: BRD inhibitory activity was measured using a time resolved fluorescence resonance energy transfer (TR-FRET) experiment to verify the activity of BRD4 bromodomain.
The assay was performed in a final volume of 14 µL, optimized based on a CREBBP time resolved fluorescence resonance energy transfer (TR-FRET) assay kit (BPS Bioscience, cat. 32613) to maximize an assay window, and performed in a final volume of 14 µL, while maximizing the assay window. A TR-FRET fluorescence acceptor and a Tb donor were diluted in an assay buffer containing 2-[4-(2-hydroxyethyl)piperazin-1-yl]ethanesulfonic acid (HEPES) (hereafter, referred to as an assay buffer, BPS Bioscience, cat. 33012), and 3 µL of each solution was transferred to all wells of a white 384-low-volume well plate (Corning, cat. 4513). 2 µL of 4X Ac-H4 peptide (final concentration 15 nM) was transferred to high control wells and test wells. Each compound was prepared at 10 concentration points by serially diluting 3-fold from the highest concentration in a dimethyl sulfoxide (DMSO) solvent. The compound at each concentration was then diluted in the assay buffer to prepare a diluted compound solution that was 4-fold more concentrated than the final concentration. 2 µL of each compound or dimethyl sulfoxide prepared in this way was distributed into an assay plate so that the final test concentration was a minimum of 0.5 µM to a maximum of 10 µM (final DMSO concentration 1%). 6 µL of 1X assay buffer was added to low control wells and 2 µL was added to high control and test wells. Then, 2 µL of 4X BRD4 (BD1) protein (final concentration 7.5 nM, BPS bioscience, cat 31040) was added to initiate a PPI reaction. The plate was reacted at room temperature for 2 hours before measuring the signal. The TR-FRET signal was measured using an EnVision Multilabel plate reader (PerkinElmer; Mirror LNACE/DELFIA Dual/Bias). For data analysis, the values of each well were obtained using the TR-FRET ratio ((Signal 665 nm/Signal 615 nm)×20000). Data analysis was performed using the TR-FRET ratio ((Signal 665 nm/Signal 615 nm)×20000). Data were reported as percent inhibition compared to control wells based on the following equation: %Activity = ((FRETcompound - FRETLow av)/(FRETHigh av - FRETLow av))×100. IC50 analysis was determined by standard 4 parameter curve fitting according to an algorithm using GraphPad Prism 7.0 (GraphPad Software Inc., La Jolla, CA, USA). All data are expressed as mean ± standard error of the mean (SEM).

| Compound | IC50 (CBP BRD protein) [nM] | IC50 (BRD4 (BD1) protein) [µM] |
| --- | --- | --- |
| CC(C)c1cc(-n2c(C(C)(F)F)nc3cc(-c4cnn(C)c4)c(F)cc32)cc2c1n(C)c(=O)n2C | 500 to 5000 | > 5 |
| CN(C)c1ccc(Nc2cc(-n3c(-c4cncn4C)nc4cc(-c5cnn(C)c5)c(F)cc43)cc3c2n(C)c(=O)n3C)cc1 | < 500 | > 5 |
| Cc1ncc(-c2cc3nc(C(C)(C)C)n(-c4cc(N5CC(C)(O)C5)c5c(c4)n(C)c(=O)n5C)c3cc2C#N)s1 | < 500 | > 5 |
| 4-(3-allyloxy-3-methyl-azetidin-1-yl)-6-[2-tert-butyl-6-(difluoromethyl)-5-(1-methylpyrazol-4-yl)benzimidazol-1-yl]-1,3-dimethyl-benzimidazol-2-one | < 500 | > 5 |
| Cn1cncc1-c1nc2cc(-c3ccc4c(c3)CCC(=O)N4)c(F)cc2n1-c1cc(C2CCOCC2)c2c(c1)n(C)c(=O)n2C | < 500 | 0.5 to 5 |
| C[C@H]1[C@H](O)CN1c1cc(-n2c(-c3cncn3C)nc3cc(-c4cnn(C)c4)c(F)cc32)cc2c1n(C)c(=O)n2C | < 500 | > 5 |
| Cn1cc(-c2cc3nc(-c4cncn4C)n(-c4cc(N5CC6COCC6C5)c5c(c4)n(C)c(=O)n5C)c3cc2F)cn1 (stereo not shown) | < 500 | 0.5 to 5 |
| Cn1cc(-c2cc3nc(C(C)(C)C)n(-c4cc(N5CCOCC5)c5c(c4)n(C)c(=O)n5C)c3cc2NC(=O)OC(C)(C)C)cn1 | > 5000 | > 5 |
| Cn1cc(-c2cc3nc(-c4cncn4C)n(-c4ccc5c(c4)n(C)c(=O)n5C)c3cc2C(F)F)cn1 | < 500 | > 5 |
| CC(C)n1cc(-c2cc3nc(-c4cncn4C)n(-c4cc(N5CCOCC5)c5c(c4)n(C)c(=O)n5C)c3cc2F)cn1 | < 500 | > 5 |
| Cn1cc(-c2cc3nc(-c4cncn4C)n(-c4cc(NC5CCC5)c5c(c4)n(C)c(=O)n5C)c3cc2F)cn1 | < 500 | > 5 |
| Cn1cc(-c2cc3nc(-c4cncn4C)n(-c4cc(N5CCOCC5)c5c(c4)n(C)c(=O)n5C)c3cc2C(F)(F)F)cn1 | < 500 | > 5 |
| Cn1cc(-c2cc3nc(C(C)(C)C)n(-c4cc(C5CCN(C(=O)OC(C)(C)C)CC5)c5c(c4)n(C)c(=O)n5C)c3cc2F)cn1 | 500 to 5000 | > 5 |
| Cn1cc(-c2cc3nc(-c4cncn4C)n(-c4cc(NC(C)(C)C)c5c(c4)n(C)c(=O)n5C)c3cc2F)cn1 | < 500 | > 5 |
| CC(C)Nc1cc(-n2c(-c3cncn3C)nc3cc(-c4cnn(C)c4)c(C(F)(F)F)cc32)cc2c1n(C)c(=O)n2C | < 500 | > 5 |
| Cn1cc(-c2cc3nc(-c4cncn4C)n(-c4cc(C#C[Si](C)(C)C)c5c(c4)n(C)c(=O)n5C)c3cc2F)cn1 | 500 to 5000 | > 5 |
| CC(=O)Nc1ccc(-c2cc3nc(-c4cncn4C)n(-c4cc(NC(C)C)c5c(c4)n(C)c(=O)n5C)c3cc2F)cc1 | < 500 | 0.5 to 5 |
| Cn1cc(-c2cc3nc(C(C)(C)C)n(-c4cc(N5CC(C)(O)C5)c5c(c4)n(C)c(=O)n5C)c3cc2C(F)(F)F)cn1 | < 500 | > 5 |
| Cn1cc(-c2cc3nc(-c4cncs4)n(-c4cc(N5CC(C)(O)C5)c5c(c4)n(C)c(=O)n5C)c3cc2C(F)F)cn1 | < 500 | 0.5 to 5 |
| CNC(=O)c1ccc(-c2cc3nc(-c4cncn4C)n(-c4ccc5c(c4)n(C)c(=O)n5C)c3cc2C(=O)OC)cc1F | < 500 | 0.5 to 5 |
